The nature of series [1]: Serum biochemical markers (ActiTest components, AST) in adjudicated DILI cases grouped by responsible drug. Conditions: DILI cases attributed to the drug, at inclusion.
Series [2] in a line: FibroTest and ActiTest scores in DILI cases. Format: in vivo, human. The note with it: DILI cases attributed to the drug, at inclusion.

In series [1], gabapentin/pregabalin had an ApoA1 median of 0.54 g/L, a BILI median of 120 µmol/L and an HAPTO median of 0.69 g/L. Also, the FibroTest median in series [2] stood at 0.92.

Source of the values: patent US11965894B2, “Method of diagnosis of drug induced liver injury” (BIOPREDICTIVE, priority 2017, dated 2024).
